ChEMBL document CHEMBL5725752, “1-pyridazin-/triazin-3-yl-piper(-azine)/idine/pyrolidine derivatives and compositions thereof for inhibiting the activity of SHP2” (2018)

Chains of the proteins cited; added tags and fusions are not shown.
UniProt Q06124, whole entry: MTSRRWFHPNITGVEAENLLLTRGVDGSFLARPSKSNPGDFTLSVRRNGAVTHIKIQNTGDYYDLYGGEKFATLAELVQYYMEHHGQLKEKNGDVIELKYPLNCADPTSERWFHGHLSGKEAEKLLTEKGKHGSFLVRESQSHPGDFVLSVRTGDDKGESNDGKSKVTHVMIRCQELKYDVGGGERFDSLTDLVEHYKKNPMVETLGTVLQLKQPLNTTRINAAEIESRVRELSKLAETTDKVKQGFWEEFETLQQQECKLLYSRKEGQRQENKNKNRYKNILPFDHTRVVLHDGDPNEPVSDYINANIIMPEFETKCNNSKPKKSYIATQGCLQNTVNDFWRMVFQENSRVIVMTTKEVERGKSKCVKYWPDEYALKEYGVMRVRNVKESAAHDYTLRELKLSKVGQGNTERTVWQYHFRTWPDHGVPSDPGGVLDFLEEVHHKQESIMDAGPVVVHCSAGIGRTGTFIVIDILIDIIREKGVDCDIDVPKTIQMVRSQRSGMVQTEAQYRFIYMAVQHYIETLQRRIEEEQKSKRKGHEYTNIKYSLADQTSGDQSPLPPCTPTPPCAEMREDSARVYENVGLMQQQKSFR

Target: Tyrosine-protein phosphatase non-receptor type 11 (Homo sapiens, UniProt Q06124)
Experiment: SHP2 Allosteric Inhibition Assay: More specifically, the phosphatase reactions were performed at room temperature in 384-well black polystyrene plate, flat bottom, low flange, non-binding surface (Corning, Cat#3575) using a final reaction volume of 25 μL and the following assay buffer conditions: 60 mM HEPES, pH 7.2, 75 mM NaCl, 75 mM KCl, 1 mM EDTA, 0.05% P-20, 5 mM DTT. The inhibition of SHP2 …

CC1(N)CCN(c2cnc(-c3cccc4cc[nH]c34)c(N)n2)CC1
IC50: 632 nM
